{"source": "ChEMBL document CHEMBL1140479", "about": "“NO donors. Part 16: investigations on structure-activity relationships of organic mononitrates reveal 2-nitrooxyethylammoniumnitrate as a high potent vasodilator” (Bioorg Med Chem Lett, 2007)", "assay": "Vasodilatory effect in pig pulmonary artery assessed as inhibition of PGF2-alpha-induced contraction", "format": "functional, tissue-based", "details": "Sus scrofa", "procedure,_shortened": "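Porcine lungs from slaughterhouse; small pulmonary artery branches cut into rings (2–3 mm long, 1.5–2 mm diameter), tension measured in organ baths. Rings precontracted with PGF2α; test compounds added cumulatively at contraction plateau (up to 1 mM), DMSO as solvent. Endothelium checked by 10 nM bradykinin relaxation; denuded rings by gentle rubbing, pretreated with 0.2 mM L-NAME. Potency expressed as pD2.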"}
{"smiles": "O=[N+]([O-])OCCBr", "values": [{"measurement": "pD2", "value": 6.42}]}
